BindingDB's records for doi:10.1021/jm900135r (Washington University, 2009)

Target: T1, Caspase-6 (Homo sapiens, UniProt P55212)
T1 sequence (P55212 whole entry): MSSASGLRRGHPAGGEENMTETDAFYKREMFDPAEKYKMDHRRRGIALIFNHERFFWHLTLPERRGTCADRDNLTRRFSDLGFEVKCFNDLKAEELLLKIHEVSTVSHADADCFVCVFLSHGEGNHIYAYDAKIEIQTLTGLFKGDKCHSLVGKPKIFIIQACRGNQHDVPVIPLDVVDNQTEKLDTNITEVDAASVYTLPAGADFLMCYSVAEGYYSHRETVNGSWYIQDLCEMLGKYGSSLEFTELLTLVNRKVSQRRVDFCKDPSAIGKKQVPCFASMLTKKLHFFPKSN
Assay: Enzyme Inhibition Assay
Experimental: The caspase enzymatic activity was determined by measuring the accumulation of a fluorogenic product. All assays were prepared in 96-well format. Recombinant caspase enzyme was first assayed to determine the optimal concentration for each experiment. Peptide inhibitors with known IC50 values were tested together with the compounds as a control for each caspase assay. After incubation, Amount of AMC released was determined by using a Victor microplate fluorometer (Perkin Elmer Life Sciences, Boston, MA) at excitation and emission wavelengths 355 nm and 460 nm, respectively. Compounds were tested in duplicate and IC50 curves were calculated for all inhibitors assayed. Final IC50 values were the average of 3 independent experiments.

IC50: 8 nM
SMILES: CCC(C)[C@H](NC(=O)[C@H](CCC(=O)O)NC(=O)[C@@H](NC(C)=O)C(C)C)C(=O)N[C@H](C=O)CC(=O)O (stereo partly drawn) [(4S)-4-{[(1S)-1-{[(2S)-1-carboxy-3-oxopropan-2-yl]carbamoyl}-2-methylbutyl]carbamoyl}-4-[(2S)-2-acetamido-3-methylbutanamido]butanoic acid]
